Among the data in US20250034136A1 (Nimbus Wadjet, Inc., priority 2023, published 2025) are IC50 values, retold here.

Protein sequences, listed by entry. Tags and fused reporters are not part of them. Lines headed by an entry give the natural chain unless they say otherwise; changes in a name come on top.
UniProt Q14191: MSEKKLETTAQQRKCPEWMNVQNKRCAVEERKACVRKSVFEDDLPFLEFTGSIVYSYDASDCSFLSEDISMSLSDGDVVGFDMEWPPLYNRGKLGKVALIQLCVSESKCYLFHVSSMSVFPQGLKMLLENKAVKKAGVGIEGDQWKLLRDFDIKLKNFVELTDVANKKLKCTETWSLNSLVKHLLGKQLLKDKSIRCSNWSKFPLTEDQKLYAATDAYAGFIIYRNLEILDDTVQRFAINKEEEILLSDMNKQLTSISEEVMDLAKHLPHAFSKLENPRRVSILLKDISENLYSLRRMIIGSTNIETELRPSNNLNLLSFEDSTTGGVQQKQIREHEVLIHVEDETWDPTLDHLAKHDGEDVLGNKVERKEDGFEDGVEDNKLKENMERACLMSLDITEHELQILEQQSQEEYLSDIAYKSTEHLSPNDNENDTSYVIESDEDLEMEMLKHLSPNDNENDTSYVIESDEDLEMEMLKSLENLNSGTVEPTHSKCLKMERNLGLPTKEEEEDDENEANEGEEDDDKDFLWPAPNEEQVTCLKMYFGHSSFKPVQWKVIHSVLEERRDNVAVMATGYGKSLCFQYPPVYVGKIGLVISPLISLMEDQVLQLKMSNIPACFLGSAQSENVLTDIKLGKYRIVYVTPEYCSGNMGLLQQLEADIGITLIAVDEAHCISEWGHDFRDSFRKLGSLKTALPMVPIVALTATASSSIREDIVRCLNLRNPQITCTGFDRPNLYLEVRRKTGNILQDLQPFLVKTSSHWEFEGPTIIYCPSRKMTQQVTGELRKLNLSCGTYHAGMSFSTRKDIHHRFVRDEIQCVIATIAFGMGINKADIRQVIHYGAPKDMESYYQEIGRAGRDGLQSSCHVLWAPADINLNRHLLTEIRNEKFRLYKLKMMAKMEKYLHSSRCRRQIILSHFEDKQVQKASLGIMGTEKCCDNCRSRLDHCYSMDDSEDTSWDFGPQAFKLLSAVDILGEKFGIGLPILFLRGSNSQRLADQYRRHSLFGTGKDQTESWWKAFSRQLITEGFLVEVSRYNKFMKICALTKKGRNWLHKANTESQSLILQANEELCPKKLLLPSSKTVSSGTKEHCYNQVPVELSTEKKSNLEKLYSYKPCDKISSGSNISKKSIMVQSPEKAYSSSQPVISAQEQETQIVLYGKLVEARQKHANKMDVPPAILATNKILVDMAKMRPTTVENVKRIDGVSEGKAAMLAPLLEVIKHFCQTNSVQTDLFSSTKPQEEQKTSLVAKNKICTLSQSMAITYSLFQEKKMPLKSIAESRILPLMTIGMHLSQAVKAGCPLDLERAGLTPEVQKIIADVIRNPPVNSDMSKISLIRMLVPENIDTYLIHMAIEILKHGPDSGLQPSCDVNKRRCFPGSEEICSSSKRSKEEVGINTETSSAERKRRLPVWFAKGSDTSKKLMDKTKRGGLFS

The assay addresses WRN (BV08), human Werner helicase (Uniprot Q14191, amino acids 517-1235 with L1074F point mutation) (Homo sapiens (Human), UniProt Q14191, L1074F). Put plainly: WRN (BV08) ADP-Glo assay. It is filed as biochemical. To be noted: class symbols A-E, read-out: ADP-Glo_hWRN_IC50. As to the method: Bovine skin gelatin (BSG), dimethyl sulfoxide (DMSO), Pluronic F-127 and tris(2-carboxyethyl)phosphine hydrochloride solution (TCEP) were purchased from Sigma-Aldrich (St. Louis, MO) at the highest level of purity possible. […] DNA strands were annealed by heating to 95° C. for 5 minutes followed by slow cooling to room temperature. Compounds in 100% DMSO (0.1 μl) were spotted into a 384-well white polystyrene Optiplate-384 (Perkin Elmer; Waltham, MA) assay plate using a LabCyte Echo 550 (Agilent; Santa Clara, CA). DMSO (0.1 μl) was added to columns 12, rows A-H and column 24, rows I-P for the maximum signal control. […] Compounds/DMSO were preincubated for 15 minutes at 25° C. with 5 μl 2×WRN (BV08), prepared as described below, in assay buffer containing 20 mM Bicine (pH=7.5), 1 mM MgCl2, 10 mM KCl, 0.1% Pluronic F-127, 0.005% BSG, 1 mM TCEP. The reaction was initiated by the addition of 5 μl 2× substrate mixture in assay buffer and incubated for 60 minutes at 25° C. The final concentrations of the assay components were 0.15 nM WRN, 5 μM ATP, and 0.1 nM DNA duplex. The final DMSO concentration was 1% and the reference compound concentration (NSC-617145) used for the minimal signal control was 20 μM. The reaction was stopped by the addition of the ADP-Glo Kit components (Promega; Madison, WI) as directed and the relative luminescence units (RLU) were read on an Envision 2104 (Perkin Elmer; Waltham, MA). % inhibition calculation:
[formula] • Where RLU=relative luminescence units, sample=signal in sample well, and MIN and MAX are the respective minimum and maximum signal controls.
[formula] • Where top and bottom are normally allowed to float but may be fixed at 100 or 0 respectively in a 3-parameter fit. Y is the % inhibition and X is the compound concentration.
Molecular Biology and virus production. […] The baculovirus from the expression plasmid WRN—BV08 was generated from transfection and amplification following the manufacturer's instructions.
Sf9 cells grown in SF900II media were infected with 1:200 WRN—BV08 P2 virus and incubated for protein expression for 72 h at 27° C. […]

Turning to `CCc1c(N2CCN(C(=O)c3ncnc(C)c3O)C3CCC32)c(=O)c2nc(N(C)C)cnc2n1CC(=O)Nc1ccc(C(F)(F)F)cc1Cl` (racemic) [I-34, rac-N-(2-chloro-4-(trifluoromethyl)phenyl)-2-(2-(dimethylamino)-6-ethyl-7-(5-(5-hydroxy-6-methylpyrimidine-4-carbonyl)-2,5-diazabicyclo[4.2.0]octan-2-yl)-8-oxopyrido[2,3-b]pyrazin-5(8H)-yl)acetamide], the IC50 was in the range of 0.005 to 0.05 µM.

For the molecule `CCc1c(N2CCN(C(=O)c3ncnc(C)c3O)[C@H]3CC[C@H]32)c(=O)c2nc(N(C)C)cnc2n1CC(=O)Nc1ccc(C(F)(F)F)cc1Cl` (racemic) [I-106, rac-N-(2-chloro-4-(trifluoromethyl)phenyl)-2-(2-(dimethylamino)-6-ethyl-7-(5-(5-hydroxy-6-methylpyrimidine-4-carbonyl)-2,5-diazabicyclo[4.2.0]octan-2-yl)-8-oxopyrido[2,3-b]pyrazin-5(8H)-yl)acetamide], the IC50 lay within 0.005 to 0.05 µM. As for `CCc1c(N2CCN(C(=O)c3ncnc(C)c3O)[C@H]3CC[C@@H]32)c(=O)c2nc(N(C)C)cnc2n1CC(=O)Nc1ccc(C(F)(F)F)cc1Cl` (single isomer, unassigned) [I-40, N-(2-chloro-4-(trifluoromethyl)phenyl)-2-(2-(dimethylamino)-6-ethyl-7-(−5-(5-hydroxy-6-methylpyrimidine-4-carbonyl)-2,5-diazabicyclo[4.2.0]octan-2-yl)-8-oxopyrido[2,3-b]pyrazin-5(8H)-yl)acetamide], the figure is 0.005 to 0.05 µM.
